The values that follow come from ChEMBL document CHEMBL4002583, “Amino derivatives of platanic acid act as selective and potent inhibitors of butyrylcholinesterase” (Eur J Med Chem, 2017).

By UniProt entry, the sequences of proteins in these tests, tags left out. Residues count along the entry.
UniProt O42275, 24-633 limits assumed: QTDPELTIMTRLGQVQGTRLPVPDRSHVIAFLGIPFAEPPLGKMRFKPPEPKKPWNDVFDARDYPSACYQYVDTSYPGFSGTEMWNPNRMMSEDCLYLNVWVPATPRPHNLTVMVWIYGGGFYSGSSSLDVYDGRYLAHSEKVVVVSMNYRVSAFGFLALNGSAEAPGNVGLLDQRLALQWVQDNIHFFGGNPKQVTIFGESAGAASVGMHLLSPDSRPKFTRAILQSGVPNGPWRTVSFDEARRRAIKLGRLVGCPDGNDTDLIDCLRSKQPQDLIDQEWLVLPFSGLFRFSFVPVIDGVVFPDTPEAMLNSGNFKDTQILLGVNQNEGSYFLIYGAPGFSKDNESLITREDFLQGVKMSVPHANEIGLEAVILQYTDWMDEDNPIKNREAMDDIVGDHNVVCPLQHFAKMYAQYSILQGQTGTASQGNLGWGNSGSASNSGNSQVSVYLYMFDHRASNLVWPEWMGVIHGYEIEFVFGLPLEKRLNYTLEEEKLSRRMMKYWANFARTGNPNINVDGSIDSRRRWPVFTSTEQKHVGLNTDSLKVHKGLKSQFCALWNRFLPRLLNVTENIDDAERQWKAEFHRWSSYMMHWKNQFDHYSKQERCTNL
UniProt P81908, whole entry, looked up: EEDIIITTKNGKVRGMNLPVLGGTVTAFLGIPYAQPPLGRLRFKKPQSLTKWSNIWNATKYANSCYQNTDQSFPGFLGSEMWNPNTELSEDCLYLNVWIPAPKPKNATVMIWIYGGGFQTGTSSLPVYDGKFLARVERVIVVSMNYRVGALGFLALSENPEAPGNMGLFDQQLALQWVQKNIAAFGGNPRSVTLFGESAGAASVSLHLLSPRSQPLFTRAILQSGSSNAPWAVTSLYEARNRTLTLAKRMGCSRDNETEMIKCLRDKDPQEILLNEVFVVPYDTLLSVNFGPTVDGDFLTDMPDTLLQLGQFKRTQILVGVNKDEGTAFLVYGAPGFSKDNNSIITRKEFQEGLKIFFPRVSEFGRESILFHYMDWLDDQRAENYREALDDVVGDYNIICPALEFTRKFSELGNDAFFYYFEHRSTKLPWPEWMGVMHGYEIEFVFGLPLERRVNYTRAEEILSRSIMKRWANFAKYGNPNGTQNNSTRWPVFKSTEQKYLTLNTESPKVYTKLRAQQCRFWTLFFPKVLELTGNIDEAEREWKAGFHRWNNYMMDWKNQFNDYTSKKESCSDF

The Ki is the dissociation constant of the complex between target and ligand, obtained from inhibition or displacement. The low end stands for tighter binding, the high end for weaker binding.

The target in experiment [1] is T1, Acetylcholinesterase (Electrophorus electricus, UniProt O42275).
The target of experiment [2] is Cholinesterase (Equus caballus, UniProt P81908).
For experiment [3], the target named is T1, Acetylcholinesterase. Kind of experiment: Uncompetitive inhibition of electric eel AChE using acetylthiocholine iodide as substrate preincubated for 20 mins followed by substrate addition measured every 1 min for 30 mins by Cornish-Bowden plot method.

On to `COC(=O)[C@]12CC[C@@H](/C(C)=N\O)[C@@H]1[C@H]1CC[C@@H]3[C@@]4(C)CC[C@H](OC(C)=O)C(C)(C)[C@@H]4CC[C@@]3(C)[C@]1(C)CC2`, for which the Ki was 6.51 µM in experiment [1], > 40 µM in experiment [2] and 14 µM in experiment [3].
In the same order, the values of `COC(=O)[C@]12CC[C@@H](/C(C)=N/O)[C@@H]1[C@H]1CC[C@@H]3[C@@]4(C)CC[C@H](OC(C)=O)C(C)(C)[C@@H]4CC[C@@]3(C)[C@]1(C)CC2` are 6.96 µM, > 10 µM and 16.4 µM.
Take `CC(=O)O[C@H]1CC[C@]2(C)[C@H]3CC[C@@H]4[C@H]5[C@H](/C(C)=N/O)CC[C@]5(C(=O)O)CC[C@@]4(C)[C@]3(C)CC[C@H]2C1(C)C`: the Ki in experiment [1] is 16.7 µM; in experiment [2], > 40 µM.
